Like-named read-outs stand apart in the source and are kept apart here.
What was measured:
recombinant rat nNOS = biological target: T1, recombinant rat nNOS (Rattus norvegicus, UniProt P29476); test: NOS inhibition, hemoglobin capture assay, nNOS; type: biochemical; conditions: Table 2; for Ki: Ki calculated from the measured IC50 values, at least duplicate; for Selectivity ENOS/nNOS: ratio of Ki (eNOS) to Ki (nNOS); for Selectivity iNOS/nNOS: ratio of Ki (iNOS) to Ki (nNOS)
T1 construct: made in house; host or cells: E. coli

recombinant murine iNOS = biological target: T2, recombinant murine iNOS (Mus musculus, UniProt P29477); test: NOS inhibition, hemoglobin capture assay, iNOS; type: biochemical; conditions: at least duplicate
T2 construct: made in house; host or cells: E. coli

recombinant bovine eNOS = recombinant bovine eNOS (Bos taurus, UniProt P29473); conditions: for Ki: at least duplicate; for decrease in potency for eNOS: 7-9 compared with descarboxamide analogues 4-6
[1] = Table 2, Ki calculated from the measured IC50 values
[2] = read-out: Ki eNOS, Table 2, Ki calculated from the measured IC50 values
[3] = read-out: Ki ENOS, Table 1, SD ±8-12%, 10 μM L-arginine

Row | SMILES | Ki (recombinant murine iNOS; [1]) [µM] | Ki (recombinant bovine eNOS; [2]) [µM] | other results
1 | N=C(NCCC[C@H](N)CNCc1ccccc1N)N[N+](=O)[O-] [Compound 17, N-(4S)-[4-Amino-5-(2-aminobenzylamino)pentyl]-N′-nitroguanidine] | 86.3 | 86.1 | Ki (recombinant rat nNOS): 20.3 µM; Selectivity ENOS/nNOS (recombinant rat nNOS): 4.24; Selectivity iNOS/nNOS (recombinant rat nNOS): 4.25
2 | N=C(NCCC[C@H](N)CNCc1ccncc1)N[N+](=O)[O-] [Compound 31, N-(4S)-{4-Amino-5-[(pyridin-4-yl)methyl]aminopentyl}-N′-nitroguanidine] | – | 589 | –
3 | N=C(NCCC[C@H](N)CNCCCCN)N[N+](=O)[O-] [Compound 9, (4S)-N-(4-Amino-5-[aminobutyl]aminopentyl)-N′-nitroguanidine] | – | – | decrease in potency for eNOS (recombinant bovine eNOS): ~6 fold; Ki (recombinant bovine eNOS; [3]): 411 µM
4 | N=C(NCCC[C@H](N)CNc1cccc(CCN)c1)N[N+](=O)[O-] [Compound 27, N-(4S)-{4-Amino-5-[3-(2-aminoethyl)phenylamino]pentyl}-N′-nitroguanidine] | 260 | 100 | Ki (recombinant rat nNOS): 2.21 µM; Selectivity ENOS/nNOS (recombinant rat nNOS): 45.2; Selectivity iNOS/nNOS (recombinant rat nNOS): 118
5 | N=C(NCCC[C@H](N)CNCc1ccccn1)N[N+](=O)[O-] [Compound 29, N-(4S)-{4-Amino-5-[(pyridin-2-yl)methyl]aminopentyl}-N′-nitroguanidine] | 154 | 443 | –
6 | N=C(NCCC[C@H](N)CNCCCN)N[N+](=O)[O-] [Compound 8, (4S)-N-(4-Amino-5-[aminopropyl]aminopentyl)-N′-nitroguanidine] | – | – | Ki (recombinant murine iNOS; Table 1, SD ±8-12%, 10 μM L-arginine): 73 µM; decrease in potency for eNOS (recombinant bovine eNOS): 2.5 fold; Ki (recombinant bovine eNOS; [3]): 524 µM
7 | N=C(NCCC[C@H](N)CNCc1cccc(N)c1)N[N+](=O)[O-] [Compound 18, N-(4S)-[4-Amino-5-(3-aminobenzylamino)pentyl]-N′-nitroguanidine] | 572 | 185 | –
8 | N=C(NCCC[C@H](N)CNCCc1cccnc1)N[N+](=O)[O-] [Compound 33, N-(4S)-{4-Amino-5-[(2-pyridin-3-yl)ethyl]aminopentyl}-N′-nitroguanidine] | 178 | – | –
9 | N=C(NCCC[C@H](N)CNCc1ccc(N)cc1)N[N+](=O)[O-] [Compound 19, N-(4S)-[4-Amino-5-(4-aminobenzylamino)pentyl]-N′-nitroguanidine] | 326 | 303 | Ki (recombinant rat nNOS): 1.6 µM; Selectivity ENOS/nNOS (recombinant rat nNOS): 189; Selectivity iNOS/nNOS (recombinant rat nNOS): 204
10 | N=C(NCCC[C@H](N)CNCCc1ccncc1)N[N+](=O)[O-] [Compound 34, N-(4S)-{4-Amino-5-[(2-pyridin-4-yl)ethylamino]pentyl}-N′-nitroguanidine] | 395 | – | –
11 | N=C(NCCC[C@H](N)CNc1ccc(CCN)cc1)N[N+](=O)[O-] [Compound 28, N-(4S)-{4-Amino-5-[4-(2-aminoethyl)phenylamino]pentyl}-N′-nitroguanidine] | 360 | 414 | –
